# Test results taken from US20100196376A1, “METHOD FOR REDUCING ALLERGEN-INDUCED AIRWAY HYPERRESPONSIVENESS” (National Jewish Health, priority 2001, published 2010).
# Tests used:
# Assay type in all cases: in vivo, mouse (BALB/c)
# [1] = system: ovalbumin-sensitized and challenged mice (airway hyperresponsiveness to methacholine); experiment: Airway function: change in lung resistance (RL) and dynamic compliance (Cdyn) after aerosolized methacholine, ovalbumin-sensitized and challenged mice
# Method: (§1) Mice (8/group/experiment) were sensitized by intraperitoneal injection of 20 μg of ovalbumin (Grade V, Sigma) emulsified in 2.25 mg alum (Alum® Inject; Pierce, Rockford, Ill.) in a total volume of 100 μl on days 0 and 14. On days 28, 29 and 30, mice were challenged via the airways by a 20-minute inhalation exposure to aerosols of ovalbumin (1% in saline) obtained from a DeVilbiss ultrasonic nebulizer (particle size 1-5 μm). Age-matched, control animal groups (8/group/experiment) consisted of mice injected with alum alone (non-sensitized) and exposed either to aerosols of saline or to aerosolized ovalbumin, and mice sensitized to ovalbumin but subsequently exposed to aerosols of saline.
# Briefly, mice were sensitized and challenged to ovalbumin as described in Example 1. Airway function was assessed in vivo in anesthetized, mechanically ventilated mice as previously described (see, for example, Takeda et al., 1997, J. Exp. Med. 186, 449-454) by measuring changes in lung resistance (RL) and dynamic compliance (Cdyn) in response to intratracheal challenge with aerosolized methacholine at doses of 1.56, 3.125, 6.25 and 12.5 mg/ml in saline. Baseline values were recorded from data obtained after intra-tracheal challenge with aerosolized saline. The data are presented in percent of change from baseline RL, and Cdyn.
# [2] = system: ovalbumin-sensitized and challenged mice (BAL eosinophils); experiment: Bronchoalveolar lavage (BAL) differential cell counts, ovalbumin-sensitized and challenged mice; settings: i.p. 2 h prior to each allergen challenge; CGRP 20 μg/kg, CGRP fragment 8-37 100 μg/kg (FIG. 3C)
# Method: as §1
# Following assessment of airway function, the lungs were lavaged once with 1 ml of sterile Hank's balanced salt solution (HBSS) pre-warmed at 37° C. The recovered BAL fluids were placed in Eppendorf tubes and were centrifuged at 4° C. for 5 min at 1,500 rpm. The obtained cell pellets were resuspended in 200 μl of sterile phosphate-buffered saline (PBS) and total cell numbers were determined from counting of crystal violet-stained aliquots using a hemacytometer. Differential cell counts were determined from cytospin preparations stained with Leukostat (Fisher Diagnostics, Pittsburgh, Pa.). At least 200 cells were counted from each slide in a blinded fashion.
# [3] = system: ovalbumin-sensitized and challenged mice (tissue infiltrating eosinophils); experiment: Tissue infiltrating eosinophils, MBP immunoperoxidase and morphometric analysis of lung sections; settings: i.p. 2 h prior to each allergen challenge; CGRP 20 μg/kg, CGRP fragment 8-37 100 μg/kg (FIG. 3D)
# Method: For histology and immunohistochemistry, the lungs of the mice were inflated and fixed with 4% paraformaldehyde in PBS for 24 h at 4° C. followed by processing into paraffin. Five μm-thick sections were cut from the paraffin blocks, deparaffinized and stained with hematoxylin and eosin for routine histology. Mucus-containing goblet cells were visualized by staining with Periodic Acid Shiff (PAS)-alcian blue.
# The pan neuronal marker PGP9.5, CGRP and tissue eosinophils were detected by immunoperoxidase. Unless otherwise stated, all incubations were carried out at room temperature. All washes were performed with TBS (50 mM TRIS-buffered saline pH 7.6) 3 times for 5 min. […]
# For tissue eosinophils, the sections were pretreated for 5 min with 0.01% trypsin in TBS to retrieve antigens. […] CGRP was detected with a polyclonal rabbit anti-CGRP antibody (Biogenesis) diluted 1:200. […]
# The data of immunohistochemistry were quantitatively analyzed (morphometric analysis) on a G-3 Macintosh computer using the National Institutes of Health (NIH) Scion Image analysis software. […]
# The number of tissue infiltrating eosinophils was determined by counting all MBP-positive cells present in the airway wall including the adventitia. When eosinophils were present in tissue areas connecting blood vessels to adjacent airways only 50% of these cells were counted for these airways. […]
substance,measurement,setting,value
calcitonin gene-related peptide [CGRP],AHR in sensitized mice,"[1]; administration after the period of allergen challenge, CGRP i.p. at 2 h prior to assessment of airway function (FIGS. 4A, 4B)",abolished
same,"AHR in sensitized and challenged mice, aerosolized CGRP","[1]; exposed for 15 minutes to aerosolized CGRP (10^−6M) at 2 h before assessment of airway function (FIGS. 5A, 5B)",abolished
same,Extent / development of AHR,"[1]; i.p. 2 h prior to each allergen challenge, CGRP 20 μg/kg, CGRP fragment 8-37 100 μg/kg (FIGS. 3A, 3B)",completely suppressed
same,Numbers of BAL eosinophils,[2],no significant effect
same,Numbers of tissue infiltrating eosinophils,[3],no significant effect
